Laboratory results reported in US20130095194A1, “USE OF INHALED NITROUS OXIDE OR XENON FOR PREVENTING NEUROPATHIC PAIN CAUSED BY CANCER CHEMOTHERAPY” (L'Air Liquide, Société Anonyme pour I'Etude et …, priority 2011, published 2013).

Tested on: neuropathic pain caused by oxaliplatin in rats
Assay: Randall-Selitto pain thresholds in rats given repeated intraperitoneal oxaliplatin (chemo-induced neuropathic pain model)
Conditions: rats given oxaliplatin 2 mg/kg; gas/O2 (50%-50%) inhaled for 1 hour with each administration
Procedure: A preclinical study in rats was carried out.
In order to mimic the clinical use as closely as possible, a series of 8 intraperitoneal injections of oxaliplatin were given every 3 to 4 days, as illustrated in FIG. 2. This model is well known in the literature and gives an account of chemo-induced neuropathic pain.
The pain thresholds were evaluated by means of a Randall-Selitto device by applying an increasing pressure to the paw of the rat until the animal lets out a cry. The corresponding weight in grams is then noted (the Y-axis in FIG. 2). Thus, the earlier the animal cries out, for a low weight, the more pain it has.

[N-]=[N+]=O [N2O, nitrous oxide]
hypersensitivity to pain (pain threshold curve versus control group A): no sign of hypersensitivity to pain
